According to patent US8129592B2, “Plant isoflavonoid hydroxylases and methods of use thereof” (The Samuel Roberts Noble Foundation, Inc., priority 2003, dated 2012):

Molecular target: T1, MtCYP81E8 (Medicago truncatula, UniProt Q6WNQ8)
T1 construct: The full length CYP81E8 cDNA was directly excised from its original clone; made in house; host or cells: Saccharomyces cerevisiae WAT11, vector YeDP60; microsomal fraction
T1 sequence (Q6WNQ8 1-499): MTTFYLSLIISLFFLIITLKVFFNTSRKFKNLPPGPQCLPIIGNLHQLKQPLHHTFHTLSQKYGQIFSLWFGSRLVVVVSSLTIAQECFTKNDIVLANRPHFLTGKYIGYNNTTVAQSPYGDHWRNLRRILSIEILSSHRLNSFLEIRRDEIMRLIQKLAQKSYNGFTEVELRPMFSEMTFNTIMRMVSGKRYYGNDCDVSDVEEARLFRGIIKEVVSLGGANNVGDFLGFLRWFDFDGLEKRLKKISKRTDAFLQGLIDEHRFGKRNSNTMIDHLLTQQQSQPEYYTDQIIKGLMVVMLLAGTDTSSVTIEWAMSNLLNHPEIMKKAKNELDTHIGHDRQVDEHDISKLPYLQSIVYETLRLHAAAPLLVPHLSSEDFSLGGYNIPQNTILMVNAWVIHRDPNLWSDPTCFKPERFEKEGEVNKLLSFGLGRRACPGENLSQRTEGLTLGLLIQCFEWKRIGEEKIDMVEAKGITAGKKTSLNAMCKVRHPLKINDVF
Assay: Hydroxylase assay with yeast microsomes expressing recombinant MtCYP81E8
Type: biochemical
Conditions: standard assay conditions, or at different pH values and NADPH concentrations
Excerpt: PCR products were digested with BamHI and KpnI and ligated into the yeast expression vector YeDP60 following BamHI/KpnI digestion. MtCYP81E8 was directly excised from the original clone in pBSK(+) by BamHI and KpnI and inserted into YeDP60. All constructs were sequenced to ensure that there were no PCR-introduced errors. The constructs were then transferred into yeast (Saccharomyces cerevisiae) strain WAT11 with a chromosomally integrated Arabidopsis NADPH: cytochrome P450 reductase gene (Pompon et al., 1996) by the LiAc method (Gietz et al., 1992), and transformants selected on SDI media (Pompon et al., 1996). […]
After incubation at ˜80 rpm for 30 to 40 min, spheroplasts were centrifuged down for 5 min, washed twice with Zymolyase buffer B, and then twice with phosphate buffer A (0.1 M potassium phosphate pH 8.0, 1 M sorbitol, 14 mM 2-mercaptoethanol). […] Protein was quantified using a Bio-Rad protein assay kit (Bio-Rad, Hercules, Calif.).
Hydroxylase assays were performed in phosphate buffer C in a total volume of 150 μl containing 2 mM NADPH, 40 μM isoflavone substrate and 40˜70 pmol P450 protein. […] The extracts were combined, evaporated under N2, re-suspended in 60 μl of methanol, and analyzed by HPLC or LC-MS. […]
Reaction products from enzyme assays (30 μl) were analyzed by HPLC. […] UV absorption was monitored at 235, 254, 287 and 310 nm with a photodiode array detector. […]

For O=c1c(O)c(-c2ccc(O)cc2)oc2cc(O)cc(O)c12 [kaempferol], the “Activity of recombinant MtCYP81E8 with substrate (in words)” value was “no activity”.
